Experiment: xn = mol fraction of the nth substance listed
Settings: 101 kPa, Liquid, Vibrating tube method

CCC[N+](CCC)(CCC)CCC.[Br-] [tetrapropylammonium bromide] + O
mass density [kg/m3]
Settings	278.15 K	283.15 K	288.15 K	293.15 K	298.15 K	303.15 K	308.15 K
x1 = 0.0009007	1001.46	1001.15	1000.51	999.59	998.41	996.98	995.34
x1 = 0.001798	1002.95	1002.59	1001.92	1000.97	999.76	998.31	996.64
x1 = 0.003591	1005.93	1005.47	1004.73	1003.71	1002.44	1000.94	999.22
x1 = 0.007135	1011.86	1011.21	1010.3	1009.13	1007.74	1006.12	1004.28
x1 = 0.0107	1017.75	1016.94	1015.86	1014.54	1012.99	1011.24	1009.27
x1 = 0.01422	1023.49	1022.47	1021.22	1019.76	1018.07	1016.18	1014.09
x1 = 0.0177	1029.14	1027.82	1026.37	1024.72	1022.89	1020.85	1018.64
x1 = 0.02206	1035.9	1034.29	1032.62	1030.75	1028.71	1026.51	1024.13
x1 = 0.02629	1042.12	1040.3	1038.39	1036.31	1034.11	1031.75	1029.25
x1 = 0.03056	1048.03	1046.04	1043.91	1041.64	1039.25	1036.7	1034.01
x1 = 0.03484	1053.77	1051.49	1049.13	1046.66	1044.1	1041.43	1038.63
x1 = 0.04311	1063.57	1061	1058.3	1055.48	1052.62	1049.65	1046.55
x1 = 0.05132	1072.31	1069.28	1066.28	1063.18	1060.04	1056.85	1053.57
x1 = 0.06089	1080.88	1077.47	1074.18	1070.85	1067.47	1064.12	1060.64
x1 = 0.07486	1090.59	1087.19	1083.42	1079.85	1076.3	1072.68	1069.06
x1 = 0.09142	1099.07	1095.35	1091.67	1087.93	1084.23	1080.53	1076.66
x1 = 0.1085	1105.77	1101.87	1098.06	1094.27	1090.46	1086.64	1082.79
x1 = 0.1261	–	1106.82	1102.87	1098.86	1094.96	1091.13	1087.33
